# scFv variants of Ab-95 (light chain) against a SARS-CoV-2 spike peptide

Target: peptide PDVDLGDISGINAS, taken from heptad repeat 2 (HR2) of SARS-CoV-2 spike.

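Phage display of a naive human antibody library on the peptide gave the parent. AAYL52 was designed without a model: most single CDR substitutions and a random sample of double and triple ones. Affinity was read by AlphaSeq, a pooled yeast mating assay with surface-displayed partners. Binding brings cells together so that they mate, and sequencing counts the barcode pairs among the diploids. A regression on co-assayed BCL2-family reference pairs converts the normalised counts of each replicate to an apparent Kd. The assay was run in three technical replicates.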

Parent scFv Ab-95: VH joined to VL by a 15-residue (Gly4Ser)3 linker. Changes lie in the light chain CDRs alone.
VH: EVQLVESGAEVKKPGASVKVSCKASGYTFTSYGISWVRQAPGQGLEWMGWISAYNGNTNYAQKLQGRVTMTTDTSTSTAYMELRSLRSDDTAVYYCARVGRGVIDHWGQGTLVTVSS
VL: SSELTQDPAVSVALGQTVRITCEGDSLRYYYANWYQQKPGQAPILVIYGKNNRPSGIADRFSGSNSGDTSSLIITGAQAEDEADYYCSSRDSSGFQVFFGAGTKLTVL

Substitutions are numbered in sequence along the VL above, starting at 1 (not Kabat). Affinities are written as log10 Kd with Kd in nM; a lower number is a better binder. Averages over replicates are reported, and they cover detected replicates only. "no signal" means that the variant was in the library but no mating with the target was seen in any replicate; the authors take this as a sign of poor binding, and no number exists. Parent in this assay: reference entry 2.31, copy in this library 2.25. As a blank, each scFv also met three strains without target: over library AAYL52, 28% of these pairings were detected, typically at 3.91 and seldom below 2.90.

changes | mean log10 Kd (nM) | seen in
L27T+S88A+V97S | 3.73 | 3 of 3
N33V+N51Q+V97E | 4.53 | 2 of 3
D25N+R28M+S88M | 1.86 | 3 of 3
S26N+R53F+Q96R | 4.00 | 1 of 3
E23Y+Y30N+N51D | 0.65 | 3 of 3
R28N+N33C+V97W | 4.81 | 2 of 3
L27I+R53K+S55L | 2.77 | 3 of 3
D25M+R90V+F95Y | no signal | 0 of 3
G49R+N52K+S89N | 4.07 | 2 of 3
E23H+Y30E+G49N | 1.29 | 3 of 3
N33Y+R90Q+S93C | 3.78 | 2 of 3
R28L+P54M+S89L | 4.08 | 1 of 3
N51L+N52K+R90D | 2.76 | 1 of 3
L27P+N33L | 3.21 | 3 of 3
S92R+F95G+F98Q | 2.67 | 3 of 3
Y29L+N52I+F98P | 3.45 | 3 of 3
S26E+N51A+S93Q | 4.28 | 1 of 3
S92I+G94C+V97L | no signal | 0 of 3
S26C+S88D+D91M | 4.03 | 2 of 3
N51R+S88Y+S92D | 3.58 | 1 of 3
D25T+S26Q+L27P | 3.03 | 3 of 3
S26P+R53Q+F95C | 2.35 | 3 of 3
R28K+N52A+R53P | 3.59 | 1 of 3
G49A+N51G+P54A | 2.95 | 2 of 3
S55F+V97Y+F98A | 2.13 | 3 of 3
Y29E+D91W+S93A | 2.01 | 3 of 3
R28W+S92C+Q96D | 3.23 | 3 of 3
P54K+D91K | 4.54 | 1 of 3
L27Y+G49N+N51G | 3.68 | 3 of 3
Y29I+G49L+P54M | no signal | 0 of 3
D25P+A32Y | 3.53 | 2 of 3
G24Q+Y30R+S55E | 1.96 | 3 of 3
Y29V+N51V+V97F | 4.06 | 1 of 3
D25C+G49D+R53A | 4.11 | 2 of 3
A32L+P54N+G94V | no signal | 0 of 3
D25L+S55P+R90F | 2.66 | 3 of 3
N33K+G49V+S55I | 4.35 | 2 of 3
Y29R+R53P | no signal | 0 of 3
Y29Q+R53A+F98Y | 2.79 | 3 of 3
K50S+N52G+F95E | 2.70 | 3 of 3
S89E+S93D+Q96N | no signal | 0 of 3
G24Q+Y30K+S88I | 4.31 | 1 of 3
Y30D+Y31M+S92R | 1.74 | 3 of 3
A32P+S55V+D91F | 1.01 | 3 of 3
Y29D+K50D+N52K | 1.31 | 3 of 3
S26W+L27M+S88C | 3.82 | 3 of 3
D25H+R28G+F98R | 2.59 | 3 of 3
G24T+K50T+S92E | no signal | 0 of 3
Y29E+Y31N+G94N | 1.93 | 3 of 3
D91K+S92Y+F98D | 4.35 | 2 of 3
N52P+Q96M | 4.00 | 2 of 3
R53D+D91C+S93K | 3.95 | 2 of 3
Y30F+N51W | 4.23 | 2 of 3
Y31W+R90G+G94T | no signal | 0 of 3
S26M+R53A+S88W | 4.15 | 1 of 3
S26W+Y29W+D91H | 3.56 | 1 of 3
D25S+Y30G+G49I | 3.76 | 1 of 3
E23I+P54Y+F95T | 4.25 | 3 of 3
R90D+S93L+G94P | 2.66 | 3 of 3
E23W+G24V+S89T | no signal | 0 of 3
R53V+D91F+F98I | 4.06 | 3 of 3

The last 9 entries again:

changes | mean log10 Kd (nM) | seen in
Y30F+N51W | 4.23 | 2 of 3
Y31W+R90G+G94T | no signal | 0 of 3
S26M+R53A+S88W | 4.15 | 1 of 3
S26W+Y29W+D91H | 3.56 | 1 of 3
D25S+Y30G+G49I | 3.76 | 1 of 3
E23I+P54Y+F95T | 4.25 | 3 of 3
R90D+S93L+G94P | 2.66 | 3 of 3
E23W+G24V+S89T | no signal | 0 of 3
R53V+D91F+F98I | 4.06 | 3 of 3

Source: Engelhart et al. 2022 (doi:10.1038/s41597-022-01779-4), MIT Lincoln Laboratory and A-Alpha Bio; data file from the FLAb repository.